# Values quoted from earlier work as cited in PMC7503831 (Molecules, 2020).
# Protein sequences, listed by entry. Tags and fused reporters are not part of them.
# UniProt P41143, whole entry: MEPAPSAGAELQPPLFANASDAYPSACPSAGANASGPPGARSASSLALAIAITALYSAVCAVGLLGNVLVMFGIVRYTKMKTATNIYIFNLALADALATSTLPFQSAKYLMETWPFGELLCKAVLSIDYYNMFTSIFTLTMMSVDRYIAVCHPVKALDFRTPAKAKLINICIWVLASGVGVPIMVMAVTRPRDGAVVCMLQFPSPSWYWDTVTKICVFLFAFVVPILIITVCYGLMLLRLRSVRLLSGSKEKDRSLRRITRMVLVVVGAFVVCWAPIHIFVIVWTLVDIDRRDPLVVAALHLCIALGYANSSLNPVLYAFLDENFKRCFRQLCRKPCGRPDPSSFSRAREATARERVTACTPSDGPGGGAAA
# Marks after values point to notes of the source that are not given here.
# How the values were obtained:
# human DOR [1] = target: T1, human DOR (Homo sapiens, UniProt P41143); conditions: read-out: Binding Affinity, Ki (DOR) (95% CI); [3H]DPDPE, CHO cells expressing human DOR; cited from earlier work
# human DOR [2] = target: T1, human DOR; conditions: cited from earlier work
structure (smiles),measurement,setting,value
C=CCN(CC=C)[C@@H](Cc1ccc(O)cc1)C(=O)NC(C)(C)C(=O)NC(C)(C)C(=O)N[C@@H](Cc1ccccc1)C(=O)N[C@@H](CC(C)C)C(=O)O,Ki,human DOR [1],422 nM
same,EC50,"human DOR [2]; read-out: Functional Activity for DOR, EC50 (95% CI), [35S]GTPγS, human DOR recombinant CHO cell membrane",114 nM
same,"Functional Activity for DOR, Emax (standard)","human DOR [2]; standards: DPDPE (1 μM) DOR agonist, ICI-174,864 (10 μM) DOR inverse agonist",−100 ^f %
